SMILES strings stand for the structures. This is a selection; strong and weak results do not stand in their true shares. The source made the active and inactive calls.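 The calls were made as follows: active = inhibition above the mean of all tested compounds plus 3 SD, cutoff set per campaign (cut at about 30% in these data); inactive = the rest.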

Protein sequences, listed by entry. Tags and fused reporters are not part of them.
UniProt Q07817, whole entry, looked up: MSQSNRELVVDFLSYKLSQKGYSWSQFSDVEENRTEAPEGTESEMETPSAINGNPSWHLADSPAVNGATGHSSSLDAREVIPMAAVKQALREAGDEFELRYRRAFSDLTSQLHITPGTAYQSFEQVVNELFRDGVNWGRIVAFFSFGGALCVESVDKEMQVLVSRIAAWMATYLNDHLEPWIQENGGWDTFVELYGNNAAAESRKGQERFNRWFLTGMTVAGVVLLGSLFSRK

In the assay the target is Bcl-2-like protein 1 (Homo sapiens) (UniProt Q07817). Kind of assay: inhibitors of human Bcl-xL, primary screen, biochemical, fluorescence polarization, HTS (AID 2129).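 Also: 0% = DMSO wells and 100% = unlabeled Bim-BH3 peptide competitor; inhibitors lower millipolarization by displacing the labeled peptide.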 The settings on record: GST-Bcl-xL / FITC-Bim BH3 peptide fluorescence polarization; at 10.9 µM; stronger effect = higher value.
Broadly, the inhibition is the drop in the measured response relative to a control, in per cent. For `CC(=O)Nc1ccc([As](=O)(O)O)cc1`, the inhibition is inactive: 6.34%. Turning to `O=P(Nc1nc2ccc(Cl)cc2s1)(c1ccccc1)c1ccccc1`, the inhibition was inactive: 2.23%. In the case of `CCOP(=O)(Nc1ccccc1)OCC`, the inhibition was inactive: 10.5%.

For the molecule `Cc1cc(SC(NC(=O)c2ccc(F)cc2)C(Cl)(Cl)Cl)ncn1` (stereo not drawn), the inhibition is inactive: 9.69%. The figure for `CN(C(=O)Cc1ccc(Cl)c(Cl)c1)[C@H]1CCCC[C@@H]1N1CCCC1` is active: 34.6%. On to `Cc1ccc(NP(=O)(Oc2ccccc2F)Oc2ccccc2F)nc1`, for which the inhibition is inactive: 1.67%. Consider `O=[N+]([O-])c1cc([N+](=O)[O-])c(CCN2CCOCC2)c([N+](=O)[O-])c1`, for which the inhibition is inactive: 13.8%. Consider `CCN(N=Nc1nonc1N)c1nonc1N`, for which the inhibition is inactive: 1.96%. On to `O=C(NC1CCS(=O)(=O)C1)NP(=S)(Oc1ccccc1)Oc1ccccc1` (stereo not drawn), for which the inhibition is inactive: 5.41%. Under `CCNC(=S)/N=C(\N)N[N+](=O)[O-]` stands inactive: -0.45%; under `c1ccc(-c2nn[nH]n2)c(-c2nn[nH]n2)c1`, inactive: 2.93%; under `Cc1ccc(NP(=O)(Oc2cccc(C)c2)Oc2cccc(C)c2)nc1`, inactive: 3.54%.

For `CCOC(=O)NC(Sc1ccccc1)C(Cl)(Cl)Cl` (stereo not drawn), the inhibition is inactive: 4.94%.

With `COC(=O)c1cc2c(s1)N=C(c1ccccc1)N(C)P2(=O)N1CCOCC1` (stereo not drawn), the inhibition is inactive: 7.42%.

Consider `CC(=O)NC(SC(=S)N(CC(C)C)CC(C)C)C(Cl)(Cl)Cl` (stereo not drawn), for which the inhibition was inactive: -0.27%. In the case of `Cc1ccc(OP(=O)(Nc2ccccn2)Oc2ccc(C)cc2)cc1`, the inhibition is inactive: -0.65%. For the molecule `O=C(OC1CN2CCC1CC2)c1ccccc1` (stereo not drawn), the inhibition was inactive: -1.69%. Under `CCC(=O)N1C2C3N(C(=O)CC)C1C1N(C(=O)CC)C(C(N1C(=O)CC)N3C(=O)CC)N2C(=O)CC` stands inactive: -1.23%; under `Cc1ccccc1OP(=O)(Nc1ccccn1)Oc1ccccc1C`, inactive: 4.22%; under `CN(C)C(=O)Oc1noc2ccccc12`, inactive: 2.45%. In the case of `O=P1(Nc2nc3ccc(Cl)cc3s2)COc2ccccc2O1` (stereo not drawn), the inhibition is inactive: 5.6%. For the molecule `CCOc1ccc(C2=NCC(CBr)S2)cc1` (stereo not drawn), the inhibition was inactive: 1.98%. `CC(C)(C)C(=O)NC(Sc1ccccc1)C(Cl)(Cl)Cl` (stereo not drawn): the inhibition was inactive: 0.88%. As to `CC(=O)c1ccc(N2CC2c2ccncc2)cc1` (stereo not drawn), the inhibition was inactive: 6.56%.

With `Cc1ccccc1CN(C)C(=O)COC(=O)C(O)(c1ccccc1)c1ccccc1`, the inhibition was inactive: -0.6%. `C[C@@H]1C=CCP(=O)(Oc2ccccc2)O1` (stereo partly drawn): the inhibition was inactive: 3.03%. Regarding `C[C@H]1OP(=O)(Oc2ccccc2)C[C@@H]2O[C@@H]21` (stereo partly drawn), the inhibition is inactive: -1.37%. In the case of `CC(=O)Nc1ccc([As](=O)(O)O)c(O)c1`, the inhibition was inactive: 1.06%.

`CC(=O)Nc1ccc(Oc2c([N+](=O)[O-])cc([N+](=O)[O-])cc2[N+](=O)[O-])cc1`: the inhibition was inactive: 7.32%. On to `O=P(Nc1nccs1)(c1ccccc1)c1ccccc1`, for which the inhibition was inactive: 2.77%.

For `CC(C)C(=O)NC(Sc1ccccc1)C(Cl)(Cl)Cl` (stereo not drawn), the inhibition was inactive: 3.4%. Regarding `c1nnnn1CCn1cnnn1`, the inhibition is inactive: 2.25%. As for `CN(C)C1(CNC(=O)c2ccc(Cl)c(S(N)(=O)=O)c2)CCCCC1`, the inhibition is inactive: -1.2%.

Turning to `O=P(Nc1ccccn1)(c1ccc(Br)cc1)c1ccc(Br)cc1`, the inhibition was inactive: 2.97%. For the molecule `O=P(Nc1nc2ccccc2s1)(c1ccccc1)c1ccccc1`, the inhibition is inactive: 0.39%. On to `C[C@H]1OP(=O)(Oc2ccccc2)[C@H](O)[C@H](O)[C@H]1N=[N+]=[N-]` (stereo partly drawn), for which the inhibition is inactive: 3.13%. The figure for `CC(=O)NC(SC(=S)N(C)C)C(Cl)(Cl)Cl` (stereo not drawn) is inactive: 4.52%. As for `O=[N+]([O-])c1ncn(CCn2cnc([N+](=O)[O-])n2)n1`, the inhibition was inactive: 3.41%.

`O=[N+]([O-])c1ccc(O)c(/C=N/Nc2ccc([N+](=O)[O-])cc2[N+](=O)[O-])c1`: the inhibition was inactive: 0.68%. `O=[As](O)(c1ccccc1)c1ccc(O)cc1`: the inhibition is inactive: 2.32%. `Nc1ccc([As](=O)(O)c2ccc([N+](=O)[O-])cc2)cc1`: the inhibition is inactive: 0.83%.

As for `C(Cc1nn[nH]n1)Cc1nn[nH]n1`, the inhibition was inactive: 1.75%.

On to `O=C(OC1CN2CCC1CC2)c1cccc(Cl)c1` (stereo not drawn), for which the inhibition is inactive: 1.48%.

Source of the values: PubChem BioAssay AID2129 (The Scripps Research Institute Molecular Screening Center, 2009).
